Measured values reported in publication PMC10470491, “Modulation of the functional interfaces between retroviral intasomes and the human nucleosome” (mBio, 2023).

Legend:
[1] = test system: PFV intasome (integrase tetramer with viral DNA) (prototype foamy virus); experiment: AlphaLISA competition; conditions: AlphaLISA: 50 mM BisTris-propane pH 7, 100 mM NaCl, 0.1% Tween-20, 0.1% BSA, 1 mM DTT, RT, 2 h; EMSA: 8% native PAGE after salt dialysis from 2 M NaCl …
[2] = target: human mononucleosome (MN) reconstituted on the biotinylated 601 Widom sequence (human) (UniProt P04908); experiment: AlphaScreen or HTRF; AlphaLISA competition; increasing concentrations of untagged intasome titrated into the 1 nM DIG-intasome/biotinylated nucleosome interaction assay; apparent IC50
[3] = target: human mononucleosome (MN) reconstituted on the biotinylated 601 Widom sequence (human) (UniProt P04908); experiment: AlphaScreen or HTRF; AlphaLISA; biotinylated MN (0-50 nM) cross-titrated against DIG-intasome (0-100 nM), also 1 nM of each; 50 mM BisTris-propane pH 7, 100 mM NaCl, 0.1% Tween-20, 0.1% BSA, 1 mM DTT; RT; anti-DIG acceptor and streptavidin donor beads

## mononucleosome on 601 Widom
[1]
  pIC50: 7.57

## prototype foamy virus (PFV) intasome (complex)
[2]
  pIC50: 7.57
[3]
  AlphaLISA signal: > 1e+06 counts
  AlphaLISA signal (1 nM of each partner): > 1e+06 counts

pIC50: −log10 of the molar value.
